Measured values reported in PubChem BioAssay (NCATS).
This is a selection; strong and weak results do not stand in their true shares. Inconclusive results are not listed. The source made the active and inactive calls. Unless noted, calls follow the shape of the dose curve; as a rule, active = well fitted curve in the direction sought with a large enough effect; inconclusive = small, poorly fitted or top-dose-only effect, or another doubt; inactive = no such curve, though single readings can be large; an effect the other way counts as inactive or inconclusive.

Amino acid sequences for entries named in this document (tags omitted). A change or cut given only in a name is not applied to a line headed by its entry.
UniProt O75604: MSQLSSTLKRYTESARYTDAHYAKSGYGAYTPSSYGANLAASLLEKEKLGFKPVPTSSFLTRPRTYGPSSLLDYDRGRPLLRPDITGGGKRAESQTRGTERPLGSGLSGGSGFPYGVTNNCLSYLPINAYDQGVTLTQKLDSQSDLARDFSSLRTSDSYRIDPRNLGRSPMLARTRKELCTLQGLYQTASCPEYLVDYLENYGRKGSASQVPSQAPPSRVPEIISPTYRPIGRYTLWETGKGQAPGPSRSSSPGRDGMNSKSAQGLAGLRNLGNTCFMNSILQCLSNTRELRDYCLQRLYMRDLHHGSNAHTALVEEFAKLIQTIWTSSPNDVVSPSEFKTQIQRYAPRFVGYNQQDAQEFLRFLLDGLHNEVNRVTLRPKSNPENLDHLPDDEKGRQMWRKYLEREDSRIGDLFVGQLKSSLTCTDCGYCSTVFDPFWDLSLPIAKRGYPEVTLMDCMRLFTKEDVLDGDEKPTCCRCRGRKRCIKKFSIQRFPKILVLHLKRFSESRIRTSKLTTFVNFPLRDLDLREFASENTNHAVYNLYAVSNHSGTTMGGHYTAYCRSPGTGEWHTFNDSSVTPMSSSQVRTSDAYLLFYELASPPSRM
UniProt O89049, whole entry, looked up: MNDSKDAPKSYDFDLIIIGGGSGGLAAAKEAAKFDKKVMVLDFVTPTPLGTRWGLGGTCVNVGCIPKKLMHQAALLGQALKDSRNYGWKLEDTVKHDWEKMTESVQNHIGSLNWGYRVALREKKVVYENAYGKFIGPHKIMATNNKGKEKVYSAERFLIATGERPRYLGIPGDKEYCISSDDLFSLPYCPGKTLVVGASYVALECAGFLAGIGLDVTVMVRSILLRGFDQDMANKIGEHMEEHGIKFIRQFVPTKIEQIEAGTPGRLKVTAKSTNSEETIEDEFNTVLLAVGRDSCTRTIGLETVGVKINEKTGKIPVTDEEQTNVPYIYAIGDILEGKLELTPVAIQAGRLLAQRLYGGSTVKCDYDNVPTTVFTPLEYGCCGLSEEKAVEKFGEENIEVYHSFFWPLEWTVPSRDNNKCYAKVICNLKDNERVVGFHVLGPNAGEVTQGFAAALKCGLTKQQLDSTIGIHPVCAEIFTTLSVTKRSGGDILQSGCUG
UniProt P39748, whole entry, looked up: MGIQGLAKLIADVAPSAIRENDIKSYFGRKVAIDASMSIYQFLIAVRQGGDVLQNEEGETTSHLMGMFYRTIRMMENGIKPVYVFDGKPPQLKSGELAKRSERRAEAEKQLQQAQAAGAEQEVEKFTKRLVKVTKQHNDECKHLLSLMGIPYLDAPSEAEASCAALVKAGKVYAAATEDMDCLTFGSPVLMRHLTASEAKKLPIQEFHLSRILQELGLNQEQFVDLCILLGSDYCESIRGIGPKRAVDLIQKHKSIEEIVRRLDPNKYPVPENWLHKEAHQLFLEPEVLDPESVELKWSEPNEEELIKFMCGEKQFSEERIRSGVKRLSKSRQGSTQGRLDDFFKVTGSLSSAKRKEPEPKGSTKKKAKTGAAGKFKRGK
UniProt Q99549: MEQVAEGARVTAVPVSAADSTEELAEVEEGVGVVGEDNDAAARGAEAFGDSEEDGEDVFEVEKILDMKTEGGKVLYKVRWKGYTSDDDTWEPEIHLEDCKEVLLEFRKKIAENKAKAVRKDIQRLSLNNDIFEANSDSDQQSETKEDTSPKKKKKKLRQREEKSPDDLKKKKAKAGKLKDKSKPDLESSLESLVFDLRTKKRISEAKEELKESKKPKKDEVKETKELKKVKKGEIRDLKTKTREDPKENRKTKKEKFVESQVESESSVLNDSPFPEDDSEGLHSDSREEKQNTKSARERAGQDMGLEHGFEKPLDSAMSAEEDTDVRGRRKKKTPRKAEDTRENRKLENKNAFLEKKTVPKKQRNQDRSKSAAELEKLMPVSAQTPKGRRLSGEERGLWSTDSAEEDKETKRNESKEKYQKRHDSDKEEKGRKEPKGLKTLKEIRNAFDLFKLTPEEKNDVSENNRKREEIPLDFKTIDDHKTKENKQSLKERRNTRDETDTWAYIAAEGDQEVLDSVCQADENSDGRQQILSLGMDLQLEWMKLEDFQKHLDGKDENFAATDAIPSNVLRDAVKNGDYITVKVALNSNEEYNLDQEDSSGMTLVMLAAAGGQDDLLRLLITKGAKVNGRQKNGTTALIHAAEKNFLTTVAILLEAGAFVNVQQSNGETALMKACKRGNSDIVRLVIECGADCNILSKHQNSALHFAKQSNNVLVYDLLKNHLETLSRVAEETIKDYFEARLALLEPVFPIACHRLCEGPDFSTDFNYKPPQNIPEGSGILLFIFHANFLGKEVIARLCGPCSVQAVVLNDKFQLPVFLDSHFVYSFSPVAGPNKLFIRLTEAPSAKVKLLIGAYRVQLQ
UniProt Q6LX38: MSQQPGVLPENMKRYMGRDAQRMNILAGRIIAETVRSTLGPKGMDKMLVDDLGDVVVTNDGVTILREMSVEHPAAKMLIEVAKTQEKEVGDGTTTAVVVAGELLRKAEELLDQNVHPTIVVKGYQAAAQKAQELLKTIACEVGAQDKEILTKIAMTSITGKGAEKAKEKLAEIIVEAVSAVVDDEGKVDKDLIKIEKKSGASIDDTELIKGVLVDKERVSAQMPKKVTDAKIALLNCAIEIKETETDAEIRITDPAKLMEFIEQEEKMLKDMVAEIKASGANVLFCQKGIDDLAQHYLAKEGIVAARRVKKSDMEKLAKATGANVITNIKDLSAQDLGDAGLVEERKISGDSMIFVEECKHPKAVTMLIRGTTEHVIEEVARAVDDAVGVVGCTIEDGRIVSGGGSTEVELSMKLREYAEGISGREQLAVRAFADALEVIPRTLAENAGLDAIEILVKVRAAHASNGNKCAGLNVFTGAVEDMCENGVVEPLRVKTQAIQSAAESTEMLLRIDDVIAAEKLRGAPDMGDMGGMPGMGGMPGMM
UniProt Q8NER1, whole entry, looked up: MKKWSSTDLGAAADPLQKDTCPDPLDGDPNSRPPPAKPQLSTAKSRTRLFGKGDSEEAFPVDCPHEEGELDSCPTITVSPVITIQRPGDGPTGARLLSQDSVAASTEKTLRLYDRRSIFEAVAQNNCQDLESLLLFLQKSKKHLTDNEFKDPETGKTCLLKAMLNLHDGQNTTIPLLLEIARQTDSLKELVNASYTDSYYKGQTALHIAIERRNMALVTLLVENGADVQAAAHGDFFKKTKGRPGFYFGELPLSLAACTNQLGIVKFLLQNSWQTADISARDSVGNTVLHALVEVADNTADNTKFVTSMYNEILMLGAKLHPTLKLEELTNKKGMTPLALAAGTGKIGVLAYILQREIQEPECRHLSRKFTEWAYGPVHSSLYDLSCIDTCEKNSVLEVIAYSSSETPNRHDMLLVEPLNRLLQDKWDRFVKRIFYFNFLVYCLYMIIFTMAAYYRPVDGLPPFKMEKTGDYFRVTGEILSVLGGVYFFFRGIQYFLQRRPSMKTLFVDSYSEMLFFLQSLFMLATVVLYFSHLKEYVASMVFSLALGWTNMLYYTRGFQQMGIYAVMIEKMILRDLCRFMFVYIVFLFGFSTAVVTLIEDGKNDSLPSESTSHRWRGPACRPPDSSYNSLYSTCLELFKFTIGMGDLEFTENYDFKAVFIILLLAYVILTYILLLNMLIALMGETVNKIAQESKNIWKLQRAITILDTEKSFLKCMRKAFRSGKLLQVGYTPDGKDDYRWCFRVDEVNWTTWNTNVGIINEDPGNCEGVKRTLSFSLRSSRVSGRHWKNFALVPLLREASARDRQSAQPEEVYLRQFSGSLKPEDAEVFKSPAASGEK
UniProt P16473, whole entry, looked up: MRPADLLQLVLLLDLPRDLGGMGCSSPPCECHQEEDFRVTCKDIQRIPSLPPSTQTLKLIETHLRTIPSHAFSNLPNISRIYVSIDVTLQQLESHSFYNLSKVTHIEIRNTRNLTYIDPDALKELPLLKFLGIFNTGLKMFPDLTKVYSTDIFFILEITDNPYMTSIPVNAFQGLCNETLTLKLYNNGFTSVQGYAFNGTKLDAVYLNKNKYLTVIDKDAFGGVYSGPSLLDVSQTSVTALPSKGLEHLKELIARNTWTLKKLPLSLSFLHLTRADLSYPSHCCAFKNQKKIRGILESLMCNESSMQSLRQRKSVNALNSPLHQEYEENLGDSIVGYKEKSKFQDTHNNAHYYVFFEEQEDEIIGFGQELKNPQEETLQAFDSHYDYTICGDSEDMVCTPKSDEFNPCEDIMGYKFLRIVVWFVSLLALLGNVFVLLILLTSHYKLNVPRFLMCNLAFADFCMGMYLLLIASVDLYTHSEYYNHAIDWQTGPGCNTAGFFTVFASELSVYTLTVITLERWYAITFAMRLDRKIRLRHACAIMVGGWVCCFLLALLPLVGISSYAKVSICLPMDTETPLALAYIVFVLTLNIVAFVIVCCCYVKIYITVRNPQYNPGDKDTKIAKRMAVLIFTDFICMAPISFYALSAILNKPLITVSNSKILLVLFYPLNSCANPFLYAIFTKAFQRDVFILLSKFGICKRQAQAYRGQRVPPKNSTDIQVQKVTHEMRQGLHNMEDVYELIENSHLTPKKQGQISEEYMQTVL
UniProt P21728, whole entry, looked up: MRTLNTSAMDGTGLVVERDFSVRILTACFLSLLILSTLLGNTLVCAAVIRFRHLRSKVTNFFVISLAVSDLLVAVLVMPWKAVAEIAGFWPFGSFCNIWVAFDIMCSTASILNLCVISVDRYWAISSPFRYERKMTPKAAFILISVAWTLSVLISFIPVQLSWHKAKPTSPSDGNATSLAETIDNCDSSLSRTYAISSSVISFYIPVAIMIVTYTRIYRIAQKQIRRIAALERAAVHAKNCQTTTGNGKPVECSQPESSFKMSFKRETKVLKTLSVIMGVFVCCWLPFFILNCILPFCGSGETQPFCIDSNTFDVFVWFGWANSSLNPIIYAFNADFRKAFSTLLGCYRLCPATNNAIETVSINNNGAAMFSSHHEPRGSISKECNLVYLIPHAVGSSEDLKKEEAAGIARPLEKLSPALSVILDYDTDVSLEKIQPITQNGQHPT

How the values were obtained:
[1] = High Content Imaging Cell-Based qHTS for Inhibitors of the mTORC1 Signaling Pathway in MEF Cells (AID 2667); details: at 38.3 µM (top of the series);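 also: Tsc2-/- p53-/- MEFs stably re-expressing wild-type Tsc2 exposed 24 h; plate controls were DMSO wells for no effect and rapamycin control wells for full effect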
Outline: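 Immunofluorescence for rpS6 phosphorylation in MEFs of Tsc2-/-, p53-/- background rescued with WT Tsc2. Compound exposure lasted 24 hrs. Inhibition was scored against rapamycin-treated control wells.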

[2] = Cytometry Cell-Based qHTS for Inhibitors of the mTORC1 Signaling Pathway in MEF cells (AID 2668); details: mTORC1 pathway readout; at 38.3 µM (top of the series);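 also: Tsc2-/- p53-/- mouse embryonic fibroblasts stably re-expressing wild-type Tsc2; percent cells positive for phospho-rpS6 Ser235/236 relative to propidium iodide stain; plate controls were DMSO wells for no effect and 7.5 nM rapamycin control wells for full effect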
Outline: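 Tsc2-/-, p53-/- MEFs re-expressing WT Tsc2; cpd 24 hrs, 37 degree Celsius; PFA fix, Alexa-488 p-rpS6 (Ser235/236) Ab 2 hrs RT, PI counterstain; Acumen 488nm scan; p-S6/PI ratio → % positive cells; PI count = viability.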

[3] = Validation screen for small molecules that induce DNA re-replication in MCF 10A normal breast cells (AID 463097); details: MCF 10A cells, DNA re-replication phenotype imaging; at 46.1 µM (top of the series); also: 0% is about no effect; nearly all actives have a fitted effect of over 60% in size
Outline: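 Image-based qHTS: normal breast cells are incubated with compound for 48 hr, stained with Hoechst, and scanned for total nuclear fluorescence. Compounds raising the fraction of nuclei with elevated DNA content count as re-replication inducers.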

[4] = molecular target: Ubiquitin carboxyl-terminal hydrolase 2 (Homo sapiens) (UniProt O75604); assay: qHTS Validation Assay for Inhibitors of Ubiquitin-specific Protease USP2a Using CHOP2 as the Reporter (AID 463106); details: USP2a cleavage of CHOP2 reporter, enzymatic; at 38.3 µM (top of the series);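 also: plate controls were DMSO for no effect and full inhibition by NEM for full effect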
Outline: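 10nM USP2 core + cpd, 30min RT; add 25nM Ub-CHOP2/25nM substrate; 60min RT; FI 485/531nm. Buffer Tris pH 8.0, CaCl2, BME, CHAPS. Norm. to NEM = 100% inhibition; time-zero read flags fluorescent artifacts.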

[5] = qHTS Validation Assay to Find Inhibitors of Chronic Active B-Cell Receptor Signaling (AID 485345; active = well fitted curve in the direction sought with a large enough effect in the main read-out, with a control signal flat, not every such curve was filed as active;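 also: 0% = untreated basal cells and 100% = 10 µM MG-132 proteasome inhibitor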); details: ABC-DLBCL cells, chronic BCR signaling reporter, CBG luciferase; at 46.1 µM (top of the series)
Outline: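 Read-out: ratio of filter-corrected green (IkappaBalpha fusion) to red (native) luciferase signal in doxycycline-induced TMD8 cells after 4 h at 37C. Titration spanned 46 uM–3 nM; Data were normalised to basal cells and 10 uM MG-132 wells.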

[6] = molecular target: Beta-2 adrenergic receptor (Homo sapiens) (UniProt P07550); assay: qHTS validation assay of beta-arrestin-biased ligands of beta2-adrenergic receptor (AID 485366); details: cell-based beta-arrestin recruitment to ADRB2, qHTS; at 46.1 µM (top of the series); also: 0% is about no effect
Outline: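 Values derive from curve-fitted %Activity of a luminescent beta-arrestin recruitment reporter; compounds tested up to 46 microM on Tango cells for 18 hr at 37 degrees C, 5% CO2.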

[7] = molecular target: Thioredoxin reductase 1, cytoplasmic (Rattus norvegicus) (UniProt O89049); assay: qHTS Assay for Substrates of Mammalian Selenoprotein Thioredoxin Reductase 1 (TrxR1) (AID 488772); details: purified TrxR1, NADPH consumption substrate assay; at 57.1 µM (top of the series);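 also: NADPH fluorescence in the first read after selenite addition and not the 8 min delta; 0% is about no effect; a drop in NADPH fluorescence below the no-compound background marks a TrxR1 substrate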
Outline: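 Quantitative HTS in Tris-HCl buffer at pH 7.5 with EDTA and Tween-20, using rat TrxR1, 400 uM NADPH and 400 uM selenite (final). A fall in initial NADPH fluorescence relative to background marked substrate behaviour.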

[8] = molecular target: Flap endonuclease 1 (Homo sapiens) (UniProt P39748); assay: qHTS Validation Assay for the Inhibitors of Human Flap endonuclease 1 (FEN1) (AID 488816); details: FEN1 nuclease activity, fluorogenic DNA substrate; at 57.1 µM (top of the series); also: % is scaled to controls: 0 for no effect and ±100 for the full control effect
Outline: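 Readings taken at 0 and 15 min after starting the reaction with 50 nM (final) substrate supplied the signal. Compounds had first sat with 10 nM FEN1 reagent for 15 min at room temperature. Values come from Hill-equation concentration-response fits.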

[9] = molecular target: M-phase phosphoprotein 8 (Homo sapiens) (UniProt Q99549); assay: qHTS Validation Assay for Inhibitors for MPP8 Chromodomain Interactions with Methylated Histone Tails (AID 488949); details: AlphaScreen MPP8 binding to H3K9me3 peptide;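 also: 50 nM MPP8 with 50 nM peptide preformed then compounds added for 30 min; AlphaScreen signal from MPP8 chromodomain bound to biotinylated H3K9me3 peptide; top concentration of the series differs between compounds; % is scaled to controls: 0 for no effect and ±100 for the full control effect; nearly all actives have a fitted effect of over 55% in size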
Outline: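 50 nM MPP8 + 50 nM b-H3K9me3 peptide, PBS pH 7.4/0.01% Tween-20, 30 min RT; + cpd 30 min RT; + AlphaScreen donor/Ni-chelate acceptor beads 10 ug/mL final, 30 min dark; luminescence read.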

[10] = molecular target: Methanococcus maripaludis chaperonin (MmCpn) (UniProt Q6LX38); assay: High-Throughput Screening for Modulators of Cytosolic Chaperonin Activity: MmCpn Primary Screen (AID 488978); details: MmCpn chaperonin refolding activity, biochemical qHTS; at 76.9 µM (top of the series);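 also: 50 nM MmCpn enzyme hydrolysing 30 µM ATP at 37 °C; 0% is about no effect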
Outline: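 Steps: chaperonin 50 nM final; add compound, 5 min RT; start with ATP, 30 uM final; hold 10 min at 37C; add ADP Transcreener HTRF reagent, 5 min; read ex 320, em 590 and 665 nm.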

[11] = molecular target: Transient receptor potential cation channel subfamily V member 1 (Homo sapiens) (UniProt Q8NER1); assay: HTS Assay for Compounds that Act as Enhancers of the Vanilloid Receptor 1 (AID 488979); details: TRPV1-expressing cells, enhancer of channel activity, stimulated with capsaicin at EC20; at 41.7 µM (top of the series); also: 0% is about no effect
Outline: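 Calcium influx kinetics via Fluo-8 (480/520 nm) in TRPV1-expressing cells, 2000/well cultured overnight at 35.5C. Compound-alone read 3 min (agonist phase), followed by EC20 capsaicin challenge for 2 min (enhancer phase).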

[12] = molecular target: Thyrotropin receptor (Homo sapiens) (UniProt P16473); assay: qHTS Assay for Antagonists of the Thyroid Stimulating Hormone Receptor (AID 488980); details: TSHR-expressing cells, cAMP antagonist read-out; at 57.5 µM (top of the series); also: 0% is about no effect
Outline: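 Readout is cAMP by HTRF competition between cellular cAMP and cAMP-d2 for a cryptate-labelled antibody. Antagonism was assessed in TSHR-transfected HEK293 cells stimulated with 4 nM TSH (EC80, final) in the presence of RO 20-1724.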

[13] = molecular target: D(1A) dopamine receptor (Homo sapiens) (UniProt P21728); assay: HTS Assay for Allosteric Agonists of the Human D1 Dopamine Receptor: Primary Screen for Agonists (AID 488981); details: D1 receptor-expressing cells, agonist cAMP readout; at 41.8 µM (top of the series); also: 0% is about no effect
Outline: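 Calcium flux in an inducible, force-coupled HEK293 Trex D1 line (overnight at 30 C): agonist mode is the 180 s kinetic read after compound; potentiator mode is the following 180 s read after dopamine at EC20.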

[14] = molecular target: D(1A) dopamine receptor (Homo sapiens) (UniProt P21728); assay: HTS Assay for Allosteric Agonists of the Human D1 Dopamine Receptor: Primary Screen for Potentiators (AID 488982); details: D1 receptor cells, potentiator mode, cAMP signal; at 8.37 µM (top of the series); also: 0% is about no effect
[15] = molecular target: D(1A) dopamine receptor (Homo sapiens) (UniProt P21728); assay: HTS Assay for Allosteric Agonists of the Human D1 Dopamine Receptor: Primary Screen for Antagonists (AID 488983); details: D1 receptor cell assay, antagonist mode, qHTS titration; at 41.8 µM (top of the series);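 also: calcium flux response to an EC80 dopamine challenge measured with no-wash dye; % is scaled to controls: 0 for no effect and ±100 for the full control effect; nearly all actives have a fitted effect of over 65% in size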

CN(CCCl)Cc1cc(Cl)c(NC2=NCCN2)c(Cl)c1
inactive: activity change, negative = inhibition [1] -100% | activity change, negative = inhibition [2] 1.57% | re-replication induction [3] 15.7% | activity, negative = inhibition [4] 0.549% | activity change [5] -17.9% | activation [6] 0.967% | activity change, negative = NADPH consumption [7] -11% | activity, negative = inhibition [8] -1.88% | activity change, negative = inhibition ([9]; at 57.1 µM (top of the series)) 3.04% | activity change, negative = inhibition ([9]; at 114 µM (top of the series)) 0.71% | activity change, negative = inhibition [10] 0.124% | activity change, positive = enhancement [11] -1.68% | activity, negative = inhibition [12] -0.0078% | activation [13] 0.952% | activity, positive = potentiation [14] 12% | activity change, negative = inhibition [15] 7.24%
